Amino acid sequences for entries named in this document (tags omitted). A change or cut given only in a name is not applied to a line headed by its entry.
UniProt Q8NBP7, whole entry, looked up: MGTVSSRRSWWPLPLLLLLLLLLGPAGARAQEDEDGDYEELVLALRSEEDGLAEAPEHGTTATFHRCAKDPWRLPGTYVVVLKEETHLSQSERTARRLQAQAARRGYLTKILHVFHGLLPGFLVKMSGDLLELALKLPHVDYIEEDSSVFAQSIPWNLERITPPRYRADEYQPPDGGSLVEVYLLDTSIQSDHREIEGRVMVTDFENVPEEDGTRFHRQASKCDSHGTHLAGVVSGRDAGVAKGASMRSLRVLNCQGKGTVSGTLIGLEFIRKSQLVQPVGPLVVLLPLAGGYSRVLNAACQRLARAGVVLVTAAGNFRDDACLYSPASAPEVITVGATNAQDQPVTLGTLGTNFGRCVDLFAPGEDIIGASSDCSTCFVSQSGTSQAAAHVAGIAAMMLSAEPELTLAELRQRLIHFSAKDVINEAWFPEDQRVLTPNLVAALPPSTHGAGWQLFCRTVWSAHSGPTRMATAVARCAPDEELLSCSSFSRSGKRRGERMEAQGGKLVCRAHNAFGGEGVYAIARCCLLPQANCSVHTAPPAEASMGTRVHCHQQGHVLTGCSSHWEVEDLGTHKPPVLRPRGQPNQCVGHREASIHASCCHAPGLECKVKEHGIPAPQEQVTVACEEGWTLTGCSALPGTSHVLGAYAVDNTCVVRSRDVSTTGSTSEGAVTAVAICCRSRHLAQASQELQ
UniProt P01130: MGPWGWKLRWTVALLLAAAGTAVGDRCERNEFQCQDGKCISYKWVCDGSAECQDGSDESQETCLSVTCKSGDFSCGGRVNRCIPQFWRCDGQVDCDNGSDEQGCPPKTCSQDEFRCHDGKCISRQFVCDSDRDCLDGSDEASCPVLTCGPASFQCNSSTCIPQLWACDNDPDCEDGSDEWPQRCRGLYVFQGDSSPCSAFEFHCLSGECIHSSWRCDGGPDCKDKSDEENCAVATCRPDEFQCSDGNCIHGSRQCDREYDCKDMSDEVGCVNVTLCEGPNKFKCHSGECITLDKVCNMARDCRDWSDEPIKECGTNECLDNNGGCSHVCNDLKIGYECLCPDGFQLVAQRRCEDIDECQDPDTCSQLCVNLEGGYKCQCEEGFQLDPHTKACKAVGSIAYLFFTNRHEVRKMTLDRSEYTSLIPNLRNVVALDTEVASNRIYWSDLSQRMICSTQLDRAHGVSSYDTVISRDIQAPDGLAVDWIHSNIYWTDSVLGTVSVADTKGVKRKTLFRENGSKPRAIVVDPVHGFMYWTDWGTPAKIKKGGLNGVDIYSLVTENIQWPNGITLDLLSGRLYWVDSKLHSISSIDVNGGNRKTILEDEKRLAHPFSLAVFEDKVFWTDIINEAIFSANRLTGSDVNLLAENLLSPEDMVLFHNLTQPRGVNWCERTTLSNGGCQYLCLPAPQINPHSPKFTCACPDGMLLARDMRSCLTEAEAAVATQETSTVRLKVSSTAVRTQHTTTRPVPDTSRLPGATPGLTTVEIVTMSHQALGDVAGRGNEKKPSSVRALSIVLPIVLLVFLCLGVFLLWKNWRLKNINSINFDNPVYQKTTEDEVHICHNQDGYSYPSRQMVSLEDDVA

According to ChEMBL document CHEMBL5233285, “Recent Update on the Development of PCSK9 Inhibitors for Hypercholesterolemia Treatment” (J Med Chem, 2022):

How the values were obtained:
[1] = molecular target: T1, PCSK9/LDLR (Homo sapiens) (UniProt Q8NBP7+P01130); experiment: Inhibition of PCSK9-LDLR (unknown origin) protein-protein interaction relative to control; assay type: protein assay
[2] = molecular target: T1, PCSK9/LDLR (Homo sapiens); experiment: Inhibition of PCSK9-LDLR protein-protein interaction in human HepG2 cells assessed as increase in LDL uptake relative to control; assay type: cell-based
[3] = molecular target: T1, PCSK9/LDLR (Homo sapiens); experiment: Inhibition of PCSK9-LDLR protein-protein interaction in human HepG2 cells assessed as restoration of LDLR at 50 uM; assay type: cell-based
[4] = molecular target: T1, PCSK9/LDLR (Homo sapiens); experiment: Inhibition of PCSK9-LDLR protein-protein interaction in human HepG2 cells assessed as increase in LDL uptake at 50 uM; assay type: cell-based

Emax [1] [%] | Emax [2] [%] | inhibition [3] [%] | inhibition [4] [%] | SMILES
90 | 77 |  |  | CCNC(=O)[C@@H]1CSCC(=O)N[C@@H](Cc2ccccc2)C(=O)N[C@@H](C(C)C)C(=O)N2CCC[C@H]2C(=O)N[C@@H]([C@@H](C)O)C(=O)N[C@@H]([C@@H](C)O)C(=O)N[C@@H](Cc2ccc(-c3ccccc3)cc2)C(=O)N(C)[C@@H](C)C(=O)N[C@@H](Cc2ccc(-c3ccccc3)cc2)C(=O)N(C)[C@@H](C)C(=O)N[C@@H](CCC(=O)O)C(=O)N[C@@H](C)C(=O)N2CCC[C@H]2C(=O)N1
 | 38 |  |  | CC(C)[C@@H]1NC(=O)[C@H](Cc2ccccc2)NC(=O)CSC[C@@H](C(=O)NCC(N)=O)NC(=O)[C@@H]2CCCN2C(=O)[C@H](CCCNC(=N)N)NC(=O)[C@H](CC(=O)O)NC(=O)[C@H](C)N(C)C(=O)[C@H](Cc2ccc(-c3ccccc3)cc2)NC(=O)[C@H](C)N(C)C(=O)[C@H](Cc2ccc(-c3ccccc3)cc2)NC(=O)[C@H]([C@@H](C)O)NC(=O)[C@H]([C@@H](C)O)NC(=O)[C@H](CO)NC1=O
 |  | 90 | 104 | CC(C)C[C@H](N)C(=O)N1CCC[C@H]1C(=O)N[C@@H](CCCCN)C(=O)N[C@@H](Cc1c[nH]cn1)C(=O)N[C@@H](CO)C(=O)N[C@@H](C)C(=O)N[C@@H](CC(=O)O)C(=O)O
 |  | 99 | 100 | CC[C@H](C)[C@H](NC(=O)[C@@H](N)CC(C)C)C(=O)N[C@@H](CC(C)C)C(=O)N1CCC[C@H]1C(=O)N[C@@H](CCCCN)C(=O)N[C@@H](Cc1c[nH]cn1)C(=O)N[C@@H](CO)C(=O)N[C@@H](C)C(=O)N[C@@H](CC(=O)O)C(=O)O
